Values quoted from earlier work as cited in patent publication US8003783B2, “17B-hydroxysteroid dehydrogenase inhibitors” (Sterix Limited, priority 2004, dated 2011).

Chains of the proteins cited; added tags and fusions are not shown. Residues count along the entry.
UniProt P08842, 22-583: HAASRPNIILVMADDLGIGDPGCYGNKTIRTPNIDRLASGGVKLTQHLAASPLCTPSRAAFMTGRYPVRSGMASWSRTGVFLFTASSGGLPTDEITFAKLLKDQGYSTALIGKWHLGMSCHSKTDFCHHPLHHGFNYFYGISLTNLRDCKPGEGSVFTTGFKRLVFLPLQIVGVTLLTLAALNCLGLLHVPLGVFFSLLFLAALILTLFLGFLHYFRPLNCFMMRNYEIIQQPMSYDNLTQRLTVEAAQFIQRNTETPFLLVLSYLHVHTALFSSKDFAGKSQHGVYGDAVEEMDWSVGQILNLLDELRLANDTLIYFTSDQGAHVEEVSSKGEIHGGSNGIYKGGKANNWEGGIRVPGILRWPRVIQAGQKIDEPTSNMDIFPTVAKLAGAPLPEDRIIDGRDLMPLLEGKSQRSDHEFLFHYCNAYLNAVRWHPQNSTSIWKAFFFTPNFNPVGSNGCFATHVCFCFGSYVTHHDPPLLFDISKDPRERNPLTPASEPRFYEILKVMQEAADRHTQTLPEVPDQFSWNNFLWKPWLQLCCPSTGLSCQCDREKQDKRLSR

Molecular target: steroid sulphatase (Homo sapiens, UniProt P08842)
Details: in vitro; cited from earlier work

For `NS(=O)(=O)Oc1ccc2c3c(c(=O)oc2c1)CCCCC3` [667COUMATE], the “potency relative to EMATE” value is listed as roughly 3 times.
